{"source": "patent US20180256673A1", "about": "“METHODS FOR TREATING FUNGAL INFECTIONS” (priority 2015, published 2018)", "key": {"C. parapsilosis CP02 [1]": {"test_system": "C. parapsilosis CP02", "test": "microbe, parasite or virus in culture", "format": "cell-based, Candida parapsilosis", "conditions": "Lodderomyces parapsilosis, CP02, CP02 P20-1, selecting drug CAS"}, "C. parapsilosis CP02 [2]": {"test_system": "C. parapsilosis CP02", "test": "Broth microdilution MIC (CLSI), Examples 3 and 4", "conditions": "Lodderomyces parapsilosis, CP02, 24 h, read-out: Broth MIC"}, "[3]": {"test": "Phase 1 dose-escalation trials, safety and tolerability", "conditions": "single and multiple doses up to 400 mg once weekly for up to 3 weeks"}}, "data": [{"compound": "CCCCCOc1ccc(-c2ccc(-c3ccc(C(=O)N[C@H]4C[C@@H](O)[C@@H](OCC[N+](C)(C)C)NC(=O)[C@@H]5[C@@H](O)[C@@H](C)CN5C(=O)[C@H]([C@@H](C)O)NC(=O)[C@H]([C@H](O)[C@@H](O)c5ccc(O)cc5)NC(=O)[C@@H]5C[C@@H](O)CN5C(=O)[C@H]([C@@H](C)O)NC4=O)cc3)cc2)cc1", "note": "[Compound 1]", "values": [{"measurement": "MIC", "setting": "C. parapsilosis CP02 [1]", "result": 2, "unit": "µg/mL"}, {"measurement": "MIC", "setting": "C. parapsilosis CP02 [2]", "result": 2, "unit": "µg/mL"}, {"measurement": "safety and tolerability", "setting": "[3]", "result": "safe and well tolerated"}]}]}
